Laboratory results from ChEMBL document CHEMBL1124484, “Effects of 8-phenyl and 8-cycloalkyl substituents on the activity of mono-, di-, and trisubstituted alkylxanthines with substitution at the 1-, 3-, and 7-positions” (J Med Chem, 1989).

Protein sequences, listed by entry. Tags and fused reporters are not part of them.
UniProt P25099, whole entry: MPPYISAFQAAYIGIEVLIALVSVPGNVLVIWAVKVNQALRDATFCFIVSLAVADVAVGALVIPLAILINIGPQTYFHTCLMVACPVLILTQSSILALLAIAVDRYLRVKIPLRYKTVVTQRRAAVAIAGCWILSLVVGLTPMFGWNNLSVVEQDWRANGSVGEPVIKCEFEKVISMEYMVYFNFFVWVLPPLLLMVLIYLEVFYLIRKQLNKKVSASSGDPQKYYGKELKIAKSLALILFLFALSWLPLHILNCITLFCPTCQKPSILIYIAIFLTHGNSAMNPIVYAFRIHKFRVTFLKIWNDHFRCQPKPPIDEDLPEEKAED

Target: Adenosine receptor A1 (Rattus norvegicus, UniProt P25099)
Test: Inhibition of 1 nM [3H]- N6-(phenylisopropyl) adenosine binding to Adenosine A1 receptor in rat cerebral cortical membranes
Type: cell membranes, Membrane

Ki: 10 nM
Compound: CCCn1c(=O)c2[nH]c(-c3ccccc3)nc2n(CCC)c1=O
